{
  "sequences": {"note": "By UniProt entry, the sequences of proteins in these tests, tags left out. Residues count along the entry.", "UniProt P02751, 32-2477": "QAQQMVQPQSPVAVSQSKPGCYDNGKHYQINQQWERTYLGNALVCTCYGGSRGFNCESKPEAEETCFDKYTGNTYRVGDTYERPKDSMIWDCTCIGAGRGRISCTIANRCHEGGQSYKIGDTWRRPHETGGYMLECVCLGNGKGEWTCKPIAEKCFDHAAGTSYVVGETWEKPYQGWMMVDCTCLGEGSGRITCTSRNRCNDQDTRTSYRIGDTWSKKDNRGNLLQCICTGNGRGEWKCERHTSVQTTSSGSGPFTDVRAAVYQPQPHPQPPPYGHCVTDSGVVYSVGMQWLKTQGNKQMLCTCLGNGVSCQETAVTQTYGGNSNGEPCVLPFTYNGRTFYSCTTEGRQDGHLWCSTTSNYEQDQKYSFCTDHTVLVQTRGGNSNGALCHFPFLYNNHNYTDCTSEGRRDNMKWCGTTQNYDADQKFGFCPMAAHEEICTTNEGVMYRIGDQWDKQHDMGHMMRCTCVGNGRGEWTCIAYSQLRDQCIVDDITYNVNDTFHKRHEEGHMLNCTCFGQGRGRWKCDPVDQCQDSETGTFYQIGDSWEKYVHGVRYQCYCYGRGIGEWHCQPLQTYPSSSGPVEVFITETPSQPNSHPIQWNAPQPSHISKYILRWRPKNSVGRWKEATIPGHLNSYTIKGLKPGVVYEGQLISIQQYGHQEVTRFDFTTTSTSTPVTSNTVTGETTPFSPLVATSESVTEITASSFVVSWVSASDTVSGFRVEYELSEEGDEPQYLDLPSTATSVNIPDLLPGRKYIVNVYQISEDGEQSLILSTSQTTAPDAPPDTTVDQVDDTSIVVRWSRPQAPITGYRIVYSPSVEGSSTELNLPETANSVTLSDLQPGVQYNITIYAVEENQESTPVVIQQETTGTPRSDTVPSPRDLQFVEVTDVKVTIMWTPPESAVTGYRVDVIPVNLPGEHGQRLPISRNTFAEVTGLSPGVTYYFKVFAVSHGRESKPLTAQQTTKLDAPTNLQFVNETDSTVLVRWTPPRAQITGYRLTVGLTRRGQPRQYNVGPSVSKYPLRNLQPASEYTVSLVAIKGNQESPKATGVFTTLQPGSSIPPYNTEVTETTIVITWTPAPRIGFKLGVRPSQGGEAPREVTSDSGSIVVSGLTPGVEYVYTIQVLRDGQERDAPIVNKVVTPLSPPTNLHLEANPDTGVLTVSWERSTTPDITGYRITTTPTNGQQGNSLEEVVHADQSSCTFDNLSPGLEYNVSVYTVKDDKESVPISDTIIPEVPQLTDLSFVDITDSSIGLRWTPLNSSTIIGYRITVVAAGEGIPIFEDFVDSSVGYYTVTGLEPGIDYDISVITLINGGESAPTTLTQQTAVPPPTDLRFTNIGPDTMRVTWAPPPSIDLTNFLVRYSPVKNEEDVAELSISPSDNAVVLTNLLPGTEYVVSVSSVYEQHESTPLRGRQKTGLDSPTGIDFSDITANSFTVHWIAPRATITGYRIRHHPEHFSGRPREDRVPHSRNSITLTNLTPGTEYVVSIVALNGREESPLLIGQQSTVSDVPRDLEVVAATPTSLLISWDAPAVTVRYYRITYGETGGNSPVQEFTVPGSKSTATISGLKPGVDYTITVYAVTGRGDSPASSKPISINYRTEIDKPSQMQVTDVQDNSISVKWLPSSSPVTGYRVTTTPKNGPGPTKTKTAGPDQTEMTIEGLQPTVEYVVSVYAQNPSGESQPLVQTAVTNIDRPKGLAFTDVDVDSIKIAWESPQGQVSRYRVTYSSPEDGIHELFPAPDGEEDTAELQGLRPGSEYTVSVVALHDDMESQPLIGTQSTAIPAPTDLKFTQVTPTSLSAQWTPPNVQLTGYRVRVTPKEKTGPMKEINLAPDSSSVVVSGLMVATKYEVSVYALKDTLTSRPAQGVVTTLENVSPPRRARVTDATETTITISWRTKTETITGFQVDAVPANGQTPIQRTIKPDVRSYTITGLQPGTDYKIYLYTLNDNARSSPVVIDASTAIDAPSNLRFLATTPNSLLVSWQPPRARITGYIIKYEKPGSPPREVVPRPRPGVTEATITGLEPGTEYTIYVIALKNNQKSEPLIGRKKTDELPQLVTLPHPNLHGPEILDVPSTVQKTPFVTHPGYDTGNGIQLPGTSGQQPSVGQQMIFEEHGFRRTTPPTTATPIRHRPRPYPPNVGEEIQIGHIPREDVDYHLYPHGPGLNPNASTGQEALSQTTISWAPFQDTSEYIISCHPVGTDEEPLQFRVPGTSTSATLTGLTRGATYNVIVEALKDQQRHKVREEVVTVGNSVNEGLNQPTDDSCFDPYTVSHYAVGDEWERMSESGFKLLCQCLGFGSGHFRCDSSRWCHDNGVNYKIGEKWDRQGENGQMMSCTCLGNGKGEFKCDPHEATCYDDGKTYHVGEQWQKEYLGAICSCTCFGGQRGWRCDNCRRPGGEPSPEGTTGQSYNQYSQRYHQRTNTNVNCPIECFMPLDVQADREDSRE"},
  "source": "paper PMC3508296",
  "target": "fibronectin (UniProt P02751)",
  "assay": "SPR",
  "data": [
    {"substance": "RevA (natural protein; other documents disagree on this pair)", "values": [
      {"measurement": "Kd", "result": 880, "unit": "nM"},
      {"measurement": "koff", "result": 0.15, "unit": "s⁻¹"},
      {"measurement": "kon", "result": 171000, "unit": "M⁻¹ s⁻¹"}
    ]}
  ]
}
